High-throughput results deposited in PubChem BioAssay by ICCB-Longwood Screening Facility, Harvard Medical School.
GIV-Gai inh: inhibitors of GIV peptide binding to Galpha-i3, primary screen, biochemical, fluorescence polarization, FITC-GIV GBA peptide, rat Galphai3; 90 min; stronger effect = lower value; scaled: aluminum fluoride 0%, vehicle 100%; percent of control (FP), % (test concentration not listed); 0.42% of 210,000 active; AID 1224905, 2016;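 active = replicate mean at 85% of control or lower, very high polarization wells dropped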;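 also: wells of about 15 µL received 100 nL stock; the first replicate is given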
HCMV NEC inh: disrupts HCMV UL50-UL53 complex binding; HTRF UL50-UL53 interaction, normalized percent inhibition; inhibition, % (concentration not given with the values); 190,000 tested, 0.15% active; AID 1918969; in the data active = inhibition above about 27%, passing the limit was not always enough
Of the large screens only hits and unclear results are named; the others gave an inactive call. Only some compounds are listed: those with a hit (about 0.46% of all), similar ones and a draw of the others.

COCc1nnc(C(=O)Nc2cccc(C(=O)NCCc3c[nH]c4ccc(Cl)cc34)c2)s1	none
CCc1ccc(NC(=O)c2cc(C)[nH]n2)cc1	none (no result: HCMV NEC inh)
CCOC(=O)Cn1cnc2c(sc3nc(C)cc(C)c32)c1=O	none
Cc1cc(C)c2c(C(=O)O)cc(=O)[nH]c2c1	none (no result: HCMV NEC inh)
NC(=O)CSc1ccc2nnc(-c3ccccc3)n2n1	none (no result: GIV-Gai inh)
O=C(CSc1ccc2nnc(-c3ccccc3)n2n1)NC1CCCC1	HCMV NEC inh 34.0
Cc1ccc(NC(=O)Nc2ccc3c(c2)N(C)C(=O)CS3)cc1	none (no result: HCMV NEC inh)
CN1C(=O)CSc2ccc(NC(=O)Nc3cccnc3)cc21	HCMV NEC inh 34.7
Cc1ccc(S(=O)(=O)n2nc(-c3ccc(C)c(C)c3)nc2N)cc1	none
c1ccc2sc(CCc3nc4ccccc4s3)nc2c1	none (no result: GIV-Gai inh)
N/C(Cc1nc2ccccc2s1)=N\O	HCMV NEC inh 51.8
CCC(=O)N1CCc2cc(S(=O)(=O)CCC(=O)N3CCN(c4ccc(Cl)cc4)CC3)ccc21	none
COc1ccc(-c2cc(=O)oc3cc(O)c(Cl)cc23)cc1	none
O=c1cc(C(F)(F)F)c2cc(Cl)c(O)cc2o1	GIV-Gai inh -94.0
Cc1ccc(CSc2nc(C(=O)O)ccc2C#N)cc1	HCMV NEC inh 53.9 (no result: GIV-Gai inh)
Cc1ccc(CSc2nc(-c3cccs3)ccc2C#N)cc1	none
CCOc1cc(C=C2C(=O)N(C)C(=O)N(C)C2=O)ccc1OCCOc1ccccc1	none
CCOc1cc(C=C2C(=O)N(C)C(=O)N(C)C2=O)ccc1OCCOc1ccc(C)cc1	HCMV NEC inh 61.4
CCOc1ccc(OCC)c(NC(=O)C2CCN(S(=O)(=O)c3c(C)noc3/C=C/c3ccccc3F)CC2)c1	none (no result: HCMV NEC inh)
N#Cc1c(N=CN2CCCCC2)nc2c(c1-c1ccccc1)CCCC2	none
N#Cc1c(S/C=C(\O)c2ccccc2)nc2c(c1C(F)(F)F)CCCC2	GIV-Gai inh -44.1
COc1cc(/C=C2/C(=O)N(c3ccccc3)N=C2C)ccc1OS(=O)(=O)c1ccccc1[N+](=O)[O-]	none
CCOc1cc(/C=C2/C(=O)N(c3ccccc3)N=C2C)ccc1OS(=O)(=O)c1ccccc1	HCMV NEC inh 60.0
CC(C)NC(=O)C1CC(=O)N(c2ccc(Oc3ccccc3)cc2)C1 (stereo not given)	none
COc1cccc2c1CC/C(=C\c1ccc(N(C)C)cc1)C2=O	GIV-Gai inh -68.6
CCCN1C/C(=C\c2ccc(N(C)C)cc2)C(=O)/C(=C/c2ccc(N(C)C)cc2)C1	none
CC(C)C/C=C1\CC/C(=C\c2ccc(N(C)C)cc2)C1=O	GIV-Gai inh -73.9
CN(C)c1ccc(/C=C2\CCC(=C3SCCCS3)C2=O)cc1	none (no result: GIV-Gai inh)
CC(C)NS(=O)(=O)c1ccc(-c2ccno2)s1	GIV-Gai inh 31.3 (no result: HCMV NEC inh)
CC1CCC(NS(=O)(=O)c2ccc(-c3ccno3)s2)CC1 (stereo not given)	none (no result: HCMV NEC inh)
COc1ccc(-c2csc(NC3=NS(=O)(=O)c4ccccc43)n2)cc1OC	none
c1ccc(Nc2ccccn2)nc1	none
Cc1ccccc1N=Cc1sc2ccccc2c1O	none
CCOc1ccc(N=Cc2sc3ccccc3c2O)cc1	GIV-Gai inh -14.8
COc1ccccc1N=Cc1sc2ccccc2c1O	GIV-Gai inh -53.3
COc1ccc(N=Cc2sc3ccccc3c2Cl)cc1	none (no result: GIV-Gai inh)
Cc1cc(C)cc(C(=O)Nn2cnnc2)c1	none
Cc1cc(C)cc(NC(=O)C2CCC(CNS(=O)(=O)c3ccc4c(c3)C(C)(C)C(=O)N4C)CC2)c1 (stereo not given)	none (no result: HCMV NEC inh)
CN(C)c1nc(-c2ccccc2)[nH]c(=O)n1	none
COC(=O)CN(C#N)c1nc(C)cc(C)n1	none
COC(=O)CN(C#N)c1nc(NCc2ccccc2)nc(OC)n1	HCMV NEC inh 54.0
CCn1c2ccc(C)cc2c2nc(C)sc21	HCMV NEC inh 53.6
Cc1nc2c3cc(F)ccc3n(CCN3CCOCC3)c2s1	none
c1ccc(-n2c(Sc3cnccn3)nnc2-c2cccs2)cc1	none (no result: GIV-Gai inh)
O=C1CCNc2ccc(-c3ccccc3)cc21	GIV-Gai inh 14.2
O=C1CCNc2cc3ccccc3cc21	none
Cc1ccc(N(CCCCN2C(=O)c3ccccc3C2=O)C(=O)c2sc3ccccc3c2Cl)cc1	none
COc1cc(C=C2C(=O)NC(=O)NC2=O)ccc1Oc1ccc([N+](=O)[O-])cc1[N+](=O)[O-]	HCMV NEC inh 49.2
COc1cc(C=C2C(=O)NC(=O)NC2=O)ccc1OCc1ccccc1[N+](=O)[O-]	none
Brc1ccc(CNc2ccc3cn[nH]c3c2)s1	HCMV NEC inh 56.1
COc1cc(OC)c(CNc2ccc3cn[nH]c3c2)cc1Br	none
CCOc1ccc(C(=O)SC2=NCCS2)cc1	none (no result: HCMV NEC inh)
CCOC(=O)C1=C(C)N=c2s/c(=C\c3ccc(O)c(Br)c3)c(=O)n2C1c1ccc(OC)c(OC)c1 (stereo not given)	GIV-Gai inh 70.7
CCOC(=O)C1=C(C)N=c2s/c(=C\c3ccc(O)c(Br)c3)c(=O)n2C1c1ccc(OC)cc1 (stereo not given)	none
N#CC(C#N)C(C#N)(C#N)C1CCCC1=O (stereo not given)	GIV-Gai inh 68.3
CCCc1cc(=O)oc2cc(OC(=O)c3cccnc3N3CCCC3)ccc12	none (no result: GIV-Gai inh)
N#Cc1sccc1NS(=O)(=O)c1cccc(C(F)(F)F)c1	none
CC(=O)c1ccc(N=Cc2c(C)[nH]n(-c3ccc(C)c(C)c3)c2=O)cc1	none (no result: HCMV NEC inh)
Cc1ccc(-n2[nH]c(C)c(N=Nc3cccc(-c4cccc(C(=O)O)c4)c3O)c2=O)cc1C	HCMV NEC inh 79.7 (no result: GIV-Gai inh)
O=C1Nc2cc(C(=O)N3CCC(Cc4ccccc4)CC3)ccc2Sc2ccccc21	none (no result: HCMV NEC inh)
Cc1nc2nc(-c3ccccc3)c(-c3ccccc3)n2nc1C	none (no result: HCMV NEC inh)
c1ccc(-c2nc3nc(-c4ccccc4)c(-c4ccccc4)n3nc2-c2ccccc2)cc1	GIV-Gai inh -30.6 (no result: HCMV NEC inh)
CCNc1cc(C)nc(Nc2ccc(NS(=O)(=O)c3ccc(C)c(C)c3)cc2)n1	none (no result: HCMV NEC inh)
CCC(=O)N(C)/C=C1\Sc2ccccc2C1=O	none
O=CN(/C=C1\Sc2ccccc2C1=O)c1cccc2ccccc12	GIV-Gai inh -0.2
CCCCN(C)CC(O)Cn1cc(/C=C/C(=O)c2ccc(Br)cc2)c2ccccc21 (stereo not given)	none
CN1/C(=C\C=C2\C(=O)Oc3ccccc3C2=O)C(C)(C)c2ccccc21	GIV-Gai inh -32.1 (no result: HCMV NEC inh)
Cc1c(N=C/C=C2\N(C)c3ccccc3C2(C)C)c(=O)n(-c2ccccc2)n1C	none (no result: GIV-Gai inh)
C[n+]1cccc2ccc(O)cc21	GIV-Gai inh -7.5
Oc1ccc2ccccc2c1	none (no result: GIV-Gai inh)
N=c1oc2ccccc2cc1C(=O)Nc1ccccc1	none
COc1cc(C2C(C(=O)c3cc4cccc(OC)c4o3)=C(O)C(=O)N2c2nnc(C)s2)cc(Br)c1O (stereo not given)	GIV-Gai inh 27.4
COc1cccc2cc(C(=O)C3=C(O)C(=O)N(CCCn4ccnc4)C3c3ccc(F)cc3)oc12 (stereo not given)	none
CCc1ccc(Nc2ncc3c(n2)CC(C)CC3=O)cc1 (stereo not given)	none
Cc1noc(C)c1C(=O)OCC(=O)N1CCCC1=O	none (no result: GIV-Gai inh)
CCCOC(=O)c1c(C)oc2c1cc(NS(=O)(=O)c1ccc(OCC)cc1)c1ccccc12	none
CCOc1ccc(S(=O)(=O)Nc2cc(Cl)c(O)c3ccccc23)cc1	HCMV NEC inh 59.1 (no result: GIV-Gai inh)
Cc1c(S(=O)(=O)c2ccc(Cl)cc2)csc1C(=O)NC1CCN(Cc2ccccc2)CC1	none
N=C1/C(=C\c2coc3ccccc3c2=O)C(=O)N=C2SC=NN12	GIV-Gai inh -54.6 (no result: HCMV NEC inh)
CN1C(N)=NC(=O)/C1=C/c1coc2ccccc2c1=O	none
COC(=O)CCNc1ccccn1	none (no result: GIV-Gai inh)
Cc1ccc2cc(CCNC(=O)CCCc3ccccc3)c(=O)[nH]c2c1	none (no result: GIV-Gai inh)
CSc1ncc(Cl)c(C(=O)Nc2c(C(=O)c3ccc(C)c(F)c3)oc3ccccc23)n1	none
NNC(=O)COc1c(Br)cc(Br)c2cccnc12	none (no result: GIV-Gai inh)
